Laboratory results reported in patent US20080260842A1, “PERMEATION ENHANCING COMPOSITIONS FOR ANTICHOLINERGIC AGENTS” (priority 2004, published 2008).

Assay: Dose-ranging pharmacokinetic study of transdermal oxybutynin gel in healthy volunteers (Example 18)
Conditions: plasmatic ratio of metabolite; scheduled time 192; individual subjects
Protocol: The study was an open-label, randomized, parallel, three-treatment, dose-ranging pharmacokinetic study. […] The subjects were aged 19 to 53 (mean 35) years.
The oxybutynin transdermal gel formulation contained 3% w/w of oxybutynin base in a hydroalcoholic non-occlusive matrix including the unique combination of permeation enhancers of the present invention. Three different doses of the gel were administered topically once a day during 20 consecutive days: treatment A consisted in a daily amount of 1.4 g applied gel, corresponding to 42 mg oxybutynin; treatment B consisted in a daily amount of 2.0 g applied gel, corresponding to 60 mg oxybutynin; and treatment C consisted in a daily amount of 2.8 g applied gel, corresponding to 84 mg oxybutynin.

CCNCC#CCOC(=O)C(O)(c1ccccc1)C1CCCCC1 (stereo not shown) [N-desethyloxybutynin]
Treatment A/Treatment B Ratio - N-Desethyloxybutynin: 0
